Data from paper PMC7655571, “Acetylcholinesterase inhibition in electric eel and human donor blood: an in vitro approach to investigate interspecies differences and human variability in toxicodynamics” (Archives of Toxicology, 2020).

The chains behind the UniProt entries cited, without tags or fusion partners. Residues count along the entry.
UniProt O42275, 24-633: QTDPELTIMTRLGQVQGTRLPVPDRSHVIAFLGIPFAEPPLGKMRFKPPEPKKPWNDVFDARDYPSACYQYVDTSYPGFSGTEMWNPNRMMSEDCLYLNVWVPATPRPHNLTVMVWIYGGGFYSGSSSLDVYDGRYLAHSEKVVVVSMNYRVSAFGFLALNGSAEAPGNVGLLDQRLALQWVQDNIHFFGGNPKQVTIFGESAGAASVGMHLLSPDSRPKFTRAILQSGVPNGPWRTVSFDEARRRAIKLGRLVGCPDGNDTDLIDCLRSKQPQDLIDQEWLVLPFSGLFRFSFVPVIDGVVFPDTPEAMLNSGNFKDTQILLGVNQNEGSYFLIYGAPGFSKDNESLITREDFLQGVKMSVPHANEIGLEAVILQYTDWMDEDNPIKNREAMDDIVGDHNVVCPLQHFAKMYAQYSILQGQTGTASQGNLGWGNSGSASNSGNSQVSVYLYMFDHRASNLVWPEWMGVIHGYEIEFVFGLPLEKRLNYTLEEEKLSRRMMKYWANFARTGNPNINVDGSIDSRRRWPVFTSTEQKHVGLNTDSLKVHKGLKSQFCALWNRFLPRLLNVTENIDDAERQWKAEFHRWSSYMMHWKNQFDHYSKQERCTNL

Biological target: T1, Electrophorus electricus AChE (Electrophorus electricus, UniProt O42275)
T1 construct: purchased Sigma-Aldrich C2888
Assay: AChE inhibition, electric eel enzyme (Ellman method)
Type: biochemical
Settings: 30 min exposure

Q: What does the source list for CCOP(=O)(OCC)Oc1nc(Cl)c(Cl)cc1Cl [CPO, Chlorpyrifos-oxon]?
A: IC50 (IC50 Electric eel, room temperature, 3–4 independent experiments): 30 nM; IC50 (IC50 electric eel): 27 nM
